Experimental data: PMC4078735 (2013)

Details: PAMPA

For `CN1CC[C@]23c4c5ccc(O)c4O[C@H]2[C@@H](O)C=C[C@H]3[C@H]1C5` [Morphine, morphine sulfate], the “Ability to cross the dodecane barrier” value was “unable to cross the barrier”.

Structures can show the parent of a compound that is named as a salt.
